These results are taken from ChEMBL document CHEMBL1129426, “5-Lipoxygenase inhibitors: synthesis and structure-activity relationships of a series of 1-aryl-2H,4H-tetrahydro-1,2,4-triazin-3-ones” (J Med Chem, 1996).

Assay [1] addresses T1, Polyunsaturated fatty acid 5-lipoxygenase (Rattus norvegicus, UniProt P12527).
T1 sequence (P12527 whole entry): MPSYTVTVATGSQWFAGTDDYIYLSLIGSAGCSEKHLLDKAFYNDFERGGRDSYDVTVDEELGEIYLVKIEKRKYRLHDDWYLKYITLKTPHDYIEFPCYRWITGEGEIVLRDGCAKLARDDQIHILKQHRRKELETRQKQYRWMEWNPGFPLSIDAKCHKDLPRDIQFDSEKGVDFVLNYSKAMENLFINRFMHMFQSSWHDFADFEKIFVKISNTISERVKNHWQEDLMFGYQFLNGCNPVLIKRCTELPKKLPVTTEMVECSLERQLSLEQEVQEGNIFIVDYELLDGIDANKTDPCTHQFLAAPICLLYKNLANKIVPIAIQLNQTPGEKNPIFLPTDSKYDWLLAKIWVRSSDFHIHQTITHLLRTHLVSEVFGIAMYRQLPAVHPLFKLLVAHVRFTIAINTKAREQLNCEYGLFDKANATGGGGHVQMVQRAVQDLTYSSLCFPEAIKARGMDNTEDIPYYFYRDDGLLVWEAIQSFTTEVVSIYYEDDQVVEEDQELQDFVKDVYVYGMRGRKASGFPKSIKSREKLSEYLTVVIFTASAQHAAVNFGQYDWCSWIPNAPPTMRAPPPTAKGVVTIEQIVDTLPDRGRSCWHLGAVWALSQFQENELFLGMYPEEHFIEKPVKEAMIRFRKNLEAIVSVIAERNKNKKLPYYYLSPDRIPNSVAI
Briefly: Inhibition of 5-lipoxygenase catalysis in rat basophilic leukemia (RBL) cells by measuring 5-HETE product formation. It is filed as cell-based, RBL-1. A digest of the protocol: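 Crude 20000g supernatant from sonicated rat basophilic leukemia cells used as 5-LO source; 5-HETE product formation measured.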

Assay [2] addresses T2, Polyunsaturated fatty acid lipoxygenase ALOX12 (Homo sapiens) (UniProt P18054).
T2 sequence (whole entry): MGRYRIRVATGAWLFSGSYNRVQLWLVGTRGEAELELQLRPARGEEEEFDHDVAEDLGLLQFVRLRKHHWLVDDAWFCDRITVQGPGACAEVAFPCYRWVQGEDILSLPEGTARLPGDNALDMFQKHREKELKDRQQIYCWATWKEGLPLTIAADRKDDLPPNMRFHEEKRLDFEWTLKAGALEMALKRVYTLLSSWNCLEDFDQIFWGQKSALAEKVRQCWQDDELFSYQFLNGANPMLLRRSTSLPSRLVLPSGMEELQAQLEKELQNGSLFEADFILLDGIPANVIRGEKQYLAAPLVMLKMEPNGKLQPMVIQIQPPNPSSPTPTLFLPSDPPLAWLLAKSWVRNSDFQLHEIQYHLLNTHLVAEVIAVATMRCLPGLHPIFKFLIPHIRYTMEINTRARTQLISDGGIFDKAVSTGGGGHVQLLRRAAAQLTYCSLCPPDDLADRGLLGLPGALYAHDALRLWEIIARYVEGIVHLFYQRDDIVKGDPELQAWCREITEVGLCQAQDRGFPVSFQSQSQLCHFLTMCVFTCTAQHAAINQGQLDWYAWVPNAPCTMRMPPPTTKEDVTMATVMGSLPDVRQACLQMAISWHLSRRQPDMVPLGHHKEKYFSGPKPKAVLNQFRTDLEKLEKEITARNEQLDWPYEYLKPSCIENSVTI
Briefly: Compound at 100 uM was tested in vitro for inhibition of 12-LO human platelet.

The test system of assay [3] is Seed linoleate lipoxygenase (Glycine max). Description: Compound at 100 uM was tested in vitro for inhibition of 15-lipoxygenase soybean.

Broadly, the IC50 is the concentration at which inhibition is half-maximal. Read a low IC50 as higher potency. As for `O=C1NCCN(c2cccc(Br)c2)N1`, half-maximal inhibition in assay [1] (IC50) required 4.9 µM.

Usually inhibition stands for how much of the control response was suppressed. A lower inhibition goes with little suppression. For `O=C1NCCN(c2ccccc2)N1`, the inhibition in assay [2] and in assay [3] was 14% each time.
